Test results as given in ChEMBL document CHEMBL1134160 (Bioorg Med Chem Lett, 2001).

The chains behind the UniProt entries cited, without tags or fusion partners.
UniProt P49582, whole entry: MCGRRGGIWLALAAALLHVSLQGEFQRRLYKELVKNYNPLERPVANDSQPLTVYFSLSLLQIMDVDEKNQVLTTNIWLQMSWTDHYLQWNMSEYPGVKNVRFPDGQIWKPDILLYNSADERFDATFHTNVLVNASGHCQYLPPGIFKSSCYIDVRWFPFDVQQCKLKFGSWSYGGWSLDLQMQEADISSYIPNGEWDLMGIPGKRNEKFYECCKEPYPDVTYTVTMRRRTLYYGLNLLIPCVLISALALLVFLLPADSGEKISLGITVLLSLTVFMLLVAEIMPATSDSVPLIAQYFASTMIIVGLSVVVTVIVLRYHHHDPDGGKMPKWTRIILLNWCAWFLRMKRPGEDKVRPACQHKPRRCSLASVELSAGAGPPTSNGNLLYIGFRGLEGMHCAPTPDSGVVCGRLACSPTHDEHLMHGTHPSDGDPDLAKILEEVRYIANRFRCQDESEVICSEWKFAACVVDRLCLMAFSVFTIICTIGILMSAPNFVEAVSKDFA

Legend:
[1] = biological target: Neuronal acetylcholine receptor subunit alpha-7 (Mus musculus, UniProt P49582); assay: In vitro Binding affinity towards alpha-7 nAChR was determined
[2] = biological target: Neuronal acetylcholine receptor subunit alpha-7 (Mus musculus) (UniProt P49582); assay: Functional activity is expressed as percent efficacy for alpha-7 nAChR.

**Q.** `CN1[C@@H]2CC[C@H]1C[C@@H](OC(=O)c1c[nH]c3ccccc13)C2` [TROPISETRON] was tested. Which Ki [1] did it give?
**A.** 6.9 nM

**Q.** What about the Efficacy [2] of the same compound?
**A.** 36%
